Data published in patent publication US20200319163A1, “METHODS AND COMPOSITIONS OVERCOMING CANCER CELL IMMUNE RESISTANCE” (Georgetown University, priority 2019, published 2020).

Key:
[1] = tested on: ADCCS1 cells; experiment: ADCC assay (specific lysis by NK92-CD16V effector cells) on ADCC-sensitive cells; format: cell-based, human; conditions: FIG. 29
Description: (§1) Inhibitors of histone acetyltransferase C646 (cat. no. S7152), DNA methyltransferase azacytidine (cat. no. S1782), histone demethylase GSK J4 HCL (cat. no. S7070), and HDAC panobinostat (cat. no. S1030) were purchased from Selleck Chemicals. Inhibitors were solubilized in DMSO at […]. Vehicle treatment (DMSO) was used at the highest equivalent v/v used in inhibitor treatments.
(§2) ADCC assays were preformed using A431/ADCCS1/ADCCR1 as target cells and NK92-CD16V cells as the effector cells. Target cells are plated at 10,000 cells/well overnight (A431 cells double overnight).

[2] = tested on: ADCCR1 cells; experiment: ADCC assay (specific lysis by NK92-CD16V effector cells) on ADCC-resistant cells; format: cell-based, human; conditions: FIG. 29
Description: as §1, §2

N#CC[C@H](C1CCCC1)n1cc(-c2ncnc3[nH]ccc23)cn1 [ruxolitinib]
ADCC magnitude of cytotoxicity after ruxolitinib exposure [1]: increases the ADCC magnitude of cytotoxicity
ADCC magnitude of cytotoxicity after ruxolitinib exposure [2]: not in ADCCR1 cells
